The list shows a part of the results, in another mix than the full data. Calls of active or inactive are those of the source. No stated cut-off is given here; in the data, active means activation mostly above about 9.5% (no sharp cut-off); inactive means mostly below about 7.6%.
What follows are compounds tested against 5-hydroxytryptamine receptor 5A (Homo sapiens) (UniProt P47898) (assay: activation of human 5-HT5A receptor – cell-based, luminescence, full-deck HTS, counter-screen for OPRM1-OPRD1 heterodimer agonist project, primary screen (AID 504692;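 further: 0% = cells with vehicle only and 100% = reference agonist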)). Conditions: HTR5A agonist assay, at 9.3 µM, stronger effect = higher value.

Protein sequences, listed by entry. Tags and fused reporters are not part of them.
UniProt P47898, whole entry, looked up: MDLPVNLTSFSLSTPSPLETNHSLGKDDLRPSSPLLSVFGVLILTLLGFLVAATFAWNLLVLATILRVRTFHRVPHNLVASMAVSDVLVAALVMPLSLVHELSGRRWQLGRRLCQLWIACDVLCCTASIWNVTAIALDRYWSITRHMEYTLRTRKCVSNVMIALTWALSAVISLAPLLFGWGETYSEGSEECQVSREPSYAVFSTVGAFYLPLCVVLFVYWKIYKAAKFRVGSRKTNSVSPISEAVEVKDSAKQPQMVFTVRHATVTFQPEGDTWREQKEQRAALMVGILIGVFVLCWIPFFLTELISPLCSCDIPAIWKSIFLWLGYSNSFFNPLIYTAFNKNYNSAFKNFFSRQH

Row | SMILES | activation
1 | CCOC(=O)Nc1cccc([As](=O)(O)O)c1 | inactive: -1.05%
2 | COC(=O)C[C@H](NC(=O)Cn1cnc2c(OCc3ccccc3)ncnc21)C(=O)OC | inactive: 1.26%
3 | Cn1c(=O)[nH]c(=O)c2c1ncn2CCN1CCCCC1 | inactive: 0.32%
4 | O=C(Cn1c(CO)nc2ccccc21)Nc1ccc2c(c1)OCCCO2 | inactive: 3.07%
5 | Cc1ccc(NC(=O)Cn2c(=S)[nH]c3ccccc32)cc1 | inactive: 0.99%
6 | Cn1c(=O)c2c(ncn2CC(=O)NCc2cccnc2)n(C)c1=O | inactive: 2.56%
7 | COc1cc(NC(=O)[C@H](C)NC(=O)N2CCn3c2nc2ccccc23)cc(OC)c1 | inactive: 0.25%
8 | NNC(=O)Cn1c(-c2ccccn2)nc2ccccc21 | inactive: 4.04%
9 | O=C(CCCCCNC(=O)N1CCn2c1nc1ccccc12)NCCc1ccccc1 | inactive: 1.88%
10 | Cc1ccc2c(c1)[C@@H]1CN(C)CC[C@@H]1N2S(=O)(=O)c1ccc([N+](=O)[O-])cc1 | inactive: 9.35%
11 | COc1ccc(OCC(=O)N2c3ccc(C)cc3C3CN(C)CCC32)cc1 (centres undefined) | inactive: 0.62%
12 | CCC[n+]1cn(/C(C(=S)Nc2cccc(Cl)c2C)=C(/[O-])c2ccc(OC)c(OC)c2)c2ccccc21 | inactive: -6.29%
13 | Cn1c(=O)c2c(ncn2CC(=O)N2CCc3ccccc3C2)n(C)c1=O | inactive: 2.27%
14 | CCC(=O)Nc1nnc(/C=C/c2ccccc2)s1 | inactive: -1.42%
15 | O=C(Cn1cnc2c(OCc3ccccc3)ncnc21)NCCCc1ccccc1 | active: 10.2%
16 | COCCN1CCn2c(nc3cc(NC(=O)c4ccc(OC)cc4)ccc32)C1 | inactive: -0.75%
17 | CCC(C)c1ccc2oc(-c3ccc(NC(=O)Cn4cnc5c(=O)n(C)c(=O)n(C)c54)cc3)nc2c1 (centres undefined) | inactive: 2.44%
18 | CCS(=O)(=O)c1nc2ccccc2n1CC(=O)N1CCOCC1 | inactive: -0.72%
19 | O=C(Cn1c(CC(=O)N2CCOCC2)nc2ccccc21)Nc1ccc2c(c1)OC(F)(F)O2 | inactive: 3.16%
20 | O=[N+]([O-])c1ccc(Nc2ccc(Oc3ccc([N+](=O)[O-])cc3[N+](=O)[O-])cc2)c([N+](=O)[O-])c1 | inactive: -0.74%
21 | Cc1cc(SC(NC=O)C(Cl)(Cl)Cl)ncn1 (centres undefined) | inactive: -0.78%
22 | COc1ccccc1C(=O)OCCNC(=O)Cn1cnc2c1c(=O)n(C)c(=O)n2C | inactive: 0.09%
23 | O=P(Nc1ccccn1)(c1cccc2ccccc12)c1cccc2ccccc12 | inactive: -0.38%

Row | SMILES | activation
24 | CCc1nc2ccccc2n1CC(=O)N1CCN(S(=O)(=O)c2cccc(C(F)(F)F)c2)CC1 | inactive: -2.07%
25 | C/C(=N\NC(=O)Cn1c(C)nc2ccccc21)c1cccs1 | inactive: -1.61%
26 | O=C(Cn1c(CCCO)nc2ccccc21)Nc1ccccc1-c1ccccc1 | inactive: 2.22%
27 | CC1CN(Cc2nc3c(c(=O)n(C)c(=O)n3C)n2CCN2CCOCC2)CC(C)O1 (centres undefined) | inactive: 0.49%
28 | CCNC(=S)N1CCn2c(nc3ccccc32)C1 | inactive: -3.06%
29 | CC(C)(C)NC(=O)Cn1c(SCC(=O)NC2CCCCC2)nc2ccccc21 | inactive: 3.81%
30 | CCCNC(=O)Cn1c(=O)n(C)c2ccccc21 | inactive: -1.18%
31 | COC(=O)c1ccccc1NC(=O)Cn1cnc2c1c(=O)n(C)c(=O)n2C | inactive: 2.76%
32 | Cn1c(=O)c2c(ncn2CC(=O)N/N=C/c2ccc(Br)s2)n(C)c1=O | inactive: -0.41%
33 | Cn1c(=O)n(Cc2ccccc2)c(=O)c2c1nc1n2CCN1Cc1ccco1 | inactive: -1.92%
34 | CC1CCNP(=O)(N(CCCl)CCCl)O1 (centres undefined) | inactive: -0.81%
35 | COCC(=O)N(C)[C@H]1C[C@H]2c3cc(-c4ccccc4)ccc3CCN2C(=O)[C@H]1[C@H](C)O | inactive: -1.03%
36 | O=C(C1CCN(S(=O)(=O)c2cccc3cccnc23)CC1)N1CCn2c1nc1ccccc12 | inactive: -28.2%
37 | C[C@H](O)[C@@H]1C(=O)N2CCc3ccc(N4CCN(C)CC4)cc3[C@@H]2C[C@@H]1N(C)C(=O)NC1CCCCC1 | inactive: 1.86%
38 | Cc1ccc(N(CC(=O)N2CCn3c2nc2ccccc23)S(=O)(=O)c2c(C)n[nH]c2C)cc1 | inactive: 8.18%
39 | Cc1cc(C)cc(N(CC(=O)N2CCn3c2nc2ccccc23)S(=O)(=O)c2c(C)noc2C)c1 | inactive: 9.96%
40 | CCCCC(=O)Nc1nnc(/C=C/c2ccc(OC)cc2)s1 | inactive: 2.54%
41 | CC(C)C[C@H](NC(=O)N1CCn2c1nc1ccccc12)C(=O)NCCc1ccccc1 | inactive: -0.54%
42 | O=C(Cn1c(C(F)(F)F)nc2ccccc21)NCCCN1CCOCC1 | inactive: 4.79%
43 | Nc1ncnc2c1ncn2CCNCCc1ccccc1 | inactive: 10.2%
44 | CCOC(=O)Nc1ccc([As](=O)(O)O)c(O)c1 | inactive: -2.78%
45 | Cc1ccc(S(=O)(=O)c2nc(-c3ccccc3Cl)oc2N(C)C2CCN(C)CC2)cc1 | inactive: 2.74%
46 | Cc1ccc2c(c1)C1CN(C)CCC1N2C(=O)COc1ccccc1F (centres undefined) | inactive: -2.68%

Row | SMILES | activation
47 | COc1ccc(S(=O)(=O)N2CCn3c2nc2ccccc23)cc1 | inactive: -4.8%
48 | CCCNC(=O)CC1C(=O)N(Cc2ccccc2)C(C)c2nc3ccccc3n21 (centres undefined) | inactive: 1.63%
49 | Cc1ccc(-c2csc(N3CCC[C@@H]3C(=O)NCCn3c(C(F)(F)F)nc4ccccc43)n2)cc1 | active: 11.3%
50 | CSc1nc(N)nc2c1ncn2CC(=O)NCc1ccccc1 | inactive: 5.39%
51 | CC(C)[C@H](NC(=O)N1CCn2c1nc1ccccc12)C(=O)N1CCCCC1 | inactive: 4.93%
52 | CCCN(C(=O)Cn1c(C(F)(F)F)nc2ccccc21)C1CCS(=O)(=O)C1 (centres undefined) | inactive: -4.46%
53 | CC(=O)Nc1ccc(NC(=O)Cn2c(CC(=O)N3CCCC3)nc3ccccc32)cc1 | inactive: 3.31%
54 | Cc1cc(SC(NC(=O)c2ccccc2)C(Cl)(Cl)Cl)nc(C(C)C)n1 (centres undefined) | inactive: 1.46%
55 | COc1ccc(/C=N/c2nc3ccccc3n2CCN2CCCCC2)cc1OC | inactive: 4.47%
56 | Cc1ccc2c(c1)C1CN(C)CCC1N2C(=O)COc1ccc(N(C)C(=O)C(C)(C)C)cc1 (centres undefined) | inactive: 3.62%
57 | Nc1ncnc2c1ncn2CCN1CCOCC1 | inactive: 3.05%
58 | CCN(CC)CCNC(=S)N1CCn2c(nc3ccccc32)C1 | inactive: -5.7%
59 | CC(C)[C@H](NC(=O)N1CCn2c1nc1ccccc12)C(=O)NC1CCCCC1 | inactive: -2.57%
60 | Cc1ccc2c(c1)C1CN(C)CCC1N2C(=O)c1cccs1 (centres undefined) | inactive: 0.6%
61 | CC(=O)Nc1ccc(C(=O)CSc2nc3ccccc3n2CC(=O)N2CCCC2)cc1 | inactive: -0.71%
62 | O=C(Nc1nc2ccccc2n1CCN1CCCC1)c1ccc(Cl)cc1 | inactive: 2.38%
63 | CC1c2nc3ccccc3n2C(CC(=O)NCc2ccccn2)C(=O)N1Cc1ccccc1 (centres undefined) | inactive: 2.65%
64 | Cc1ccc2c(c1)C1CN(C)CCC1N2C(=O)COc1ccc(S(=O)(=O)N2CCOCC2)cc1 (centres undefined) | inactive: -0.89%
65 | O=C(Cn1c(-c2cscn2)nc2ccccc21)Nc1cc(F)ccc1F | inactive: -0.75%
66 | Cc1ccc2c(c1)C1C[N+](C)(CC(=O)c3ccc(Cl)cc3Cl)CCC1N2C(=O)c1ccc(F)cc1 (centres undefined) | inactive: 5.94%
67 | CCOC(=O)c1ccc(NC(=O)C(C)(CCl)SC)cc1 (centres undefined) | inactive: -1.03%
68 | CC(C)N(C(=O)Cn1c(Cl)nc2ccccc21)C(C)C | inactive: -1.36%
69 | CCN(CC)C(=O)Cn1cnc2c1c(=O)n(C)c(=O)n2C | inactive: -0.92%

Row | SMILES | activation
70 | O=C(c1ccccc1Cl)N1CCn2c1nc1ccccc12 | inactive: -3.41%
71 | COc1ccc(CCNC(=O)[C@H](CC(C)C)NC(=O)N2CCn3c2nc2ccccc23)cc1OC | inactive: -1.21%
72 | O=C1Cn2c(nc3ccccc32)-c2ccccc2N1 | inactive: 3.11%
73 | CCC(NC(=O)Cn1cnc2c(=O)n(C)c(=O)n(C)c21)c1ccccc1 (centres undefined) | inactive: 4.4%
74 | CCCCOc1ccccc1NC(=O)Cn1c(-c2nonc2N)nc2ccccc21 | inactive: 0.82%
75 | O=C(OC1CN2CCC1CC2)c1cccc([N+](=O)[O-])c1 (centres undefined) | inactive: 0.02%
76 | CCC(C)[C@H](NC(=O)N1CCn2c1nc1ccccc12)C(=O)NCC1CCCO1 (some centres undefined) | inactive: -1%
77 | CCc1cccc(C)c1N(C(=O)Cn1c(=O)[nH]c2ccccc21)C(C)COC (centres undefined) | inactive: -4.37%
78 | COc1cccc(CNc2nc3ccccc3n2CCN2CCCCC2)c1OC | inactive: 1.97%
79 | CSc1nc(N)nc2c1ncn2CC(=O)N1CCN(Cc2c(C)cc(C)cc2C)CC1 | active: 9.34%
80 | Cn1c(=O)c2c(nc(CN3CCOCC3)n2CCN2CCOCC2)n(C)c1=O | inactive: 4.9%
81 | CCN(CC)CCn1c(NC(=O)c2ccc(C(F)(F)F)cc2)nc2ccccc21 | inactive: 2.56%
82 | C[C@H](O)[C@@H]1C(=O)N2CCc3ccc(N4CCN(C)CC4)cc3[C@@H]2C[C@@H]1N(C)C(=O)c1ccc(C#N)cc1 | inactive: -0.15%
83 | CC1Cc2ccccc2N1C(=O)Cn1cnc2ccccc21 (centres undefined) | inactive: 4.35%
84 | O=S(=O)(Nc1ccc2c(c1)nc1n2CCN(Cc2ccccc2)C1)c1ccc(F)cc1 | inactive: 2.18%
85 | CCN(CC)C(=O)Cn1c(=O)n(Cc2ccccc2Cl)c2c1c(=O)n(C)c(=O)n2C | inactive: 5.45%
86 | Cc1nc2ccccc2n1CCN1CCOCC1 | inactive: 0.97%
87 | CSc1nc2ccccc2n1CC(=O)Nc1ccccc1 | inactive: 0.98%
88 | Cc1ccc(NC(=O)Cn2cnc3ccccc32)cc1C | inactive: -3.47%
89 | CCC(C)[C@H](NC(=O)N1CCn2c1nc1ccccc12)C(=O)NCc1ccccc1 (some centres undefined) | inactive: -3.87%

Source: PubChem BioAssay AID504692 (The Scripps Research Institute Molecular Screening Center, 2011)
